# Test results published in patent US8846704B2, “Thiopyrimidine-based compounds and uses thereof” (YM Biosciences Austraila Pty Ltd, priority 2007, dated 2014).
# Sequences of proteins named here, by UniProt entry; tags and fusion partners are left off. Residues count along the entry.
# UniProt P52333, whole entry: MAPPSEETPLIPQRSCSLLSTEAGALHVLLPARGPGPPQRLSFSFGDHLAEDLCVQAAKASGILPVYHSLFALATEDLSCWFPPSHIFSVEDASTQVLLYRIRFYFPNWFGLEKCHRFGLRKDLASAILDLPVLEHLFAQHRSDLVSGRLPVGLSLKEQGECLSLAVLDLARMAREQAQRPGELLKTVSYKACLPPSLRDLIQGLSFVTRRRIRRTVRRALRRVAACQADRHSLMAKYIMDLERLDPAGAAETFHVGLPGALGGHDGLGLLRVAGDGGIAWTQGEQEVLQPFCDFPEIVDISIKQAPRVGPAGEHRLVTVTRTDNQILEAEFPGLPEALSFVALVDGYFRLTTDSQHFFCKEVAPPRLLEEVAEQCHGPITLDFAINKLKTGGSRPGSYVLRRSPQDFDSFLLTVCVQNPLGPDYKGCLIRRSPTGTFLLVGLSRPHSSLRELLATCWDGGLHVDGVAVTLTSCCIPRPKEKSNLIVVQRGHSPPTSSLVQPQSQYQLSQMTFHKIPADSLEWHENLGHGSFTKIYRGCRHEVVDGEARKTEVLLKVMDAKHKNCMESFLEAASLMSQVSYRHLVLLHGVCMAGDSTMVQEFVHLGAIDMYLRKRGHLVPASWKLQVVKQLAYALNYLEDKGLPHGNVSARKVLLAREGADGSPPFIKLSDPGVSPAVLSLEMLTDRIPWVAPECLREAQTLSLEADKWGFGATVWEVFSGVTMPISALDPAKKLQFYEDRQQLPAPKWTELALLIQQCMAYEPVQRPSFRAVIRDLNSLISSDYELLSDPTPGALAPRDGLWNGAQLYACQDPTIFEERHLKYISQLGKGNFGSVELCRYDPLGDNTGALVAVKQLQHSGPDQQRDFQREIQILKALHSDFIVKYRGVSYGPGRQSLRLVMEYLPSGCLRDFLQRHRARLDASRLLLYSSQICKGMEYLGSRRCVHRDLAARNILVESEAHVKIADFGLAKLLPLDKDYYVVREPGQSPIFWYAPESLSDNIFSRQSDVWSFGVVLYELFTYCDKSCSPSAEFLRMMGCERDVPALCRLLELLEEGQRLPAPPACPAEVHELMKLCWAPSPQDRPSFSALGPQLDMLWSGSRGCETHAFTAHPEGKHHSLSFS
# UniProt P52333, 822-1111 limits assumed: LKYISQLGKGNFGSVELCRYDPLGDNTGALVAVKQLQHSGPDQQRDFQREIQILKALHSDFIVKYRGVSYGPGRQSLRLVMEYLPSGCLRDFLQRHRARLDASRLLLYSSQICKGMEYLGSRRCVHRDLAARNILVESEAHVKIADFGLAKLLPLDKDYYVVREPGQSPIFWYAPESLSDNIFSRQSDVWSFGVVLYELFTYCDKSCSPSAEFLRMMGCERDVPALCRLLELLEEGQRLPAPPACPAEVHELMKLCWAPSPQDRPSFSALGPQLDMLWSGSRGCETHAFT
# UniProt O60674, whole entry: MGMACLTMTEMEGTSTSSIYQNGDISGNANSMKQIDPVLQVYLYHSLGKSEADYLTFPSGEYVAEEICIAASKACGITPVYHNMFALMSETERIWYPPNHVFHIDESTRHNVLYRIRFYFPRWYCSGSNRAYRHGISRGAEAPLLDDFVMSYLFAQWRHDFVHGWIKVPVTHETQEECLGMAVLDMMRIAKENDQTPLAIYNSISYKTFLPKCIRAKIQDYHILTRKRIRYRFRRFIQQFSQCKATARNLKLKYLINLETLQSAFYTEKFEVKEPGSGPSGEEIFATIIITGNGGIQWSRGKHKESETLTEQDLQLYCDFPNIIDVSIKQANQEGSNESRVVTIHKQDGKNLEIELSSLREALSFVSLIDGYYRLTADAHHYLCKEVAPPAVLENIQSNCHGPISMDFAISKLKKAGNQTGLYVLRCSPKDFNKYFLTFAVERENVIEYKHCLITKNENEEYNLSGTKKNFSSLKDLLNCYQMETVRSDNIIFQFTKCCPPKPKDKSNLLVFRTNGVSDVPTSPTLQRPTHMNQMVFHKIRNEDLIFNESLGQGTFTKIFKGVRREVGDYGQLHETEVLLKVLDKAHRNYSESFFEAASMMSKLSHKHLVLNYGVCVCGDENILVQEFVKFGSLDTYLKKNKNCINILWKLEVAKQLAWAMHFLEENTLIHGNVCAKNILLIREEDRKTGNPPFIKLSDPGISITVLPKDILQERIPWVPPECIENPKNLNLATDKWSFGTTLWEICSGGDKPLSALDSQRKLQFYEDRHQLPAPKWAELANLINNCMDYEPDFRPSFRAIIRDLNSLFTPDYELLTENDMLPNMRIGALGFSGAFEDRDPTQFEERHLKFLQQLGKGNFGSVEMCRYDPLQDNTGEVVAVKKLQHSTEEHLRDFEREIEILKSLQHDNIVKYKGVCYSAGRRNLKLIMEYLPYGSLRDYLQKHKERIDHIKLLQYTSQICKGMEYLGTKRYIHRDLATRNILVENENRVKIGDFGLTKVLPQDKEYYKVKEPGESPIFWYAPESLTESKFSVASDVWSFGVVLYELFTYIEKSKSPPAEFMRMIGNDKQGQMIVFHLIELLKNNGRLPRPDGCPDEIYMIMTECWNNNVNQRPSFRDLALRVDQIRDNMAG
# UniProt O60674, 849-1124 limits assumed: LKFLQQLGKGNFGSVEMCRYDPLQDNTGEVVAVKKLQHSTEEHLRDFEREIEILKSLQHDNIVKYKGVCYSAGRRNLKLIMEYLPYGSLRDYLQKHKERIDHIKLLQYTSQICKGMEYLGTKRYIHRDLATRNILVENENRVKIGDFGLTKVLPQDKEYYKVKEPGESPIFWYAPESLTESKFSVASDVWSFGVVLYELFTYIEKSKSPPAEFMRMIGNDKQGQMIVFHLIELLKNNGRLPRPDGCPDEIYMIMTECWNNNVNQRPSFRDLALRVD
# UniProt P23458, 875-1153 limits assumed: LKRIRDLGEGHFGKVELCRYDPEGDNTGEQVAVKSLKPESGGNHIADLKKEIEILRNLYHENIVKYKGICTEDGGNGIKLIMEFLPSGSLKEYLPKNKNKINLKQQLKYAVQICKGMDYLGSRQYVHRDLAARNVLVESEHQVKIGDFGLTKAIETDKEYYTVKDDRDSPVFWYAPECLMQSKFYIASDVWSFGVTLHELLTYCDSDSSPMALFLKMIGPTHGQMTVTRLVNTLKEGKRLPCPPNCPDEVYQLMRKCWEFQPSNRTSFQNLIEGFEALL
# Tests used:
# [1] = tested on: CTLL2; assay: Cellular screening, CTLL2 cells, Alamar Blue; conditions: read-out: CTLL2 IC50_nM
# Procedure: (§1) Cell suspensions were prepared by harvesting cells from culture (the cells used in this test were in late log phase growth with high viability.) Cells were diluted in the appropriate growth medium, as described above, to 1.1× final concentration (from 50,000 cell/mL to 200,000 cell/mL, depending on cell line).
# (§2) Compounds to be tested were added (10 μL, 10× final concentration) to a flat bottomed 96-well plate. The cellular suspension (90 μL per well) was then added, and the plate incubated for 40 hr at 37° C., 5% CO2. Alamar Blue 10 μL per well was added and the plates returned to the incubator for a further 4-6 hours. The plates were then read at 544 nm.
# [2] = target: human JAK3 (Homo sapiens, UniProt P52333); assay: Alphascreen tyrosine kinase enzyme assay, JAK3 kinase domain; conditions: read-out: JAK3 IC50_nM
# Procedure: (§3) For screening purposes, compounds (in 100% DMSO) were warmed at 37 degrees for at least 20 minutes before use. A […] stock was initially made in assay buffer, where the final concentration of DMSO was 0.3%. The stocks were then diluted in 384 well Optiplates (Packard) where the final concentration of the compound was […].
# The kinase domain of human JAK3 was amplified from U937mRNA using the polymerase chain reaction with the following primers: […]
# The JAK3 PCR products were cloned into the pDest20 destination expression vector (Gibco). The JAK3 plasmid was then transformed into competent DH10Bac cells (Gibco), and the recombinant baculovirus was prepared via Sf9 insect cell transfection.
# (§4) Baculovirus preparations from each of the constructs were infected into either one or five liters of Sf9 cells (Invitrogen) grown in SF-900 medium (Invitrogen) to a cell density of approximately 1-2×10^6 cells/ml. Cells were infected with virus at a MOI of 0.8-3.0. Cells were harvested and lysed. Tyrosine kinase domains were purified by affinity chromatography on a glutathione-agarose column (Scientifix Pty. Ltd. catalog #: GSH-200). […]
# [3] = tested on: BaF3 wild-type cells; assay: Cellular screening, BaF3 wild-type cells, Alamar Blue; conditions: read-out: BAF3wt IC50_nM, 40 hr
# Procedure: (§5) For screening purposes, compounds were diluted in 96 well plates at a concentration of 20 μM. Plates were warmed at 37° C. for 30 minutes before the assay was performed.
# The growth factor dependant myelomonocytic cell line BaF3 bearing the pTET-off plasmid (Clontech) was transfected with either pTELJAK2 or pTELJAK3, and the transfected cells were selected for growth-factor independent cell growth. The BaF3 wild-type cells were cultured in DMEM containing 10% FCS, 10% WEHI 3B conditioned medium. The BaF3 TELJAK cells ([…]) were cultured in DMEM 10% Tet-System Approved FBS (without WEHI 3B conditioned medium).
# as §1, §2
# [4] = target: BaF3 TELJAK3 cells (Homo sapiens, UniProt P52333); assay: Cellular screening, BaF3 TEL:JAK3 cells, Alamar Blue; conditions: read-out: BafT_J3 IC50_nM, 40 hr
# Procedure: as §5
# (§6) The coding region encompassing nucleotides 1-487 of TEL was amplified by PCR using the oligonucleotides STEL (5′-GGAGGATCCTGATCTCTCTCGCTGTGAGAC-3′) [SEQ ID NO 14] and 3TEL (5′-AGGC GTCGACTTCTTCTTCATGGTTCTG-3′) [SEQ ID NO 15] and U937 mRNA as a template. A […] restriction site was incorporated into the STEL primer, and a Sal I restriction site was incorporated into the 3TEL primer. The regions encompassing the kinase domain of JAK2 (nucleotides 2994-3914; JAK2F 5′-ACGC GTCGACGGTGCCTTTGAAGACCGGGAT-3′ [SEQ ID NO 16]; JAK2R 5′-ATAGTTTAGCGGCCGCTCAGAATGAAGGTCATTT-3′) [SEQ ID NO 17] and JAK3 (nucleotides 2520-3469; JAK3F 5′-GAAGTCGACTATGCCTGCCAAGACCCCACGATCTT-3′) [SEQ ID NO 18] were generated by PCR using Taq DNA polymerase (Gibco/BRL) and […] as a template. A Sal I restriction site was incorporated into the forward primer of JAK2 and JAK3, a Not I site was incorporated into the JAK2 reverse primer and a Xba I site was added to the reverse primer of JAK3. […]
# (§7) Compounds to be tested were added (10 μL, 10× final concentration) to a flat bottomed 96-well plate. […] The plates were then read at 544 nm.
# [5] = target: human JAK2 (Homo sapiens, UniProt O60674); assay: Alphascreen tyrosine kinase enzyme assay, JAK2 kinase domain; conditions: read-out: JAK2 IC50_nM
# Procedure: as §3
# The kinase domain of human JAK2 was amplified from U937mRNA using the polymerase chain reaction with the following primers: […]
# The JAK2 PCR products were cloned into the pDest20 destination vector (Gibco). The JAK2 plasmid was then transformed into competent DH10Bac cells (Gibco), and the recombinant baculovirus was prepared via Sf9 insect cell transfection.
# as §4
# [6] = target: BaF3 TELJAK2 cells (BafT_J2) (Homo sapiens, UniProt O60674); assay: Cellular screening, BaF3 TEL:JAK2 cells, Alamar Blue; conditions: read-out: BafT_J2 IC50_nM, 40 hr
# Procedure: as §5, §6, §7
# [7] = target: human JAK1 (Homo sapiens, UniProt P23458); assay: Alphascreen tyrosine kinase enzyme assay, JAK1 kinase domain; conditions: read-out: JAK1 IC50_nM
# Procedure: as §3
# The kinase domain of human JAK1 was amplified from U937mRNA using the polymerase chain reaction with the following primers: […]
# The JAK1 PCR products were cloned into the pDest20 destination vector (Gibco). The JAK1 plasmid was then transformed into competent DH10Bac cells (Gibco), and the recombinant baculovirus was prepared via Sf9 insect cell transfection.
# as §4
smiles,measurement,setting,value
C=CC(=O)Nc1ccc(Sc2nc(Nc3ccc(C(O)(C(F)(F)F)C(F)(F)F)cc3)ncc2C)cc1,IC50,[1],< 1000 nM
same,IC50,[2],< 100 nM
same,IC50,[3],< 20000 nM
same,GI50,[4],< 1000 nM
same,IC50,[5],> 1000 nM
same,GI50,[6],< 20000 nM
same,IC50,[7],> 1000 nM
